Consider 24 compounds from PubChem BioAssay AID2805 (Sanford-Burnham Center for Chemical Genomics, 2010).

Only a part is listed here, and it is no random draw. Some results for these compounds are left out of this collection, so the calls shown say nothing about other tests. Activity calls are given as the source filed them.

The assay concerns intestinal alkaline phosphatase [Mus musculus]. Nature of the assay: activators of mouse IAP, primary screen, biochemical, luminescence, uHTS (AID 2805). As to conditions: muIAP, CDP-Star luminescence, 30 min; at 10 µM; stronger effect = higher value; 1 = vehicle-only enzyme signal, 0 = enzyme-free wells. The method, boiled down:
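System: mouse IAP enzyme. Reagent: CDP-Star chemiluminescent phosphatase substrate. Benchmarks: DMSO wells, no-enzyme wells. Times: 30 min enzyme-substrate-compound incubation at room temperature. Detection: luminescence from enzymatic CDP-Star hydrolysis. Doses: test compounds delivered from DMSO solution.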
In the case of `O=C(OC1CN2CCC1CC2)C(CO)(c1ccccc1)c1ccccc1` (centres undefined), the activation factor is inactive: 1.04. The same measure for `CN(C)c1cccc(C(=O)NCC2(N(C)C)CCCCC2)c1`: inactive: 0.96; for `CC(C)Oc1ccc(C(=O)NCC2(N(C)C)CCCCC2)cc1`: inactive: 1.01. `COc1ccc(Br)c(C(=O)NCC2(N3CCCCC3)CCCCC2)c1`: the activation factor is inactive: 0.956. Regarding `COc1cc(C(=O)NCC2(N(C)C)CCCCC2)c([N+](=O)[O-])cc1OC`, the activation factor was inactive: 1.04. Regarding `CN(C)C1(CNC(=O)c2ccc(Br)cc2)CCCCC1`, the activation factor was inactive: 1.12. `O=C(NCC1(N2CCCCC2)CCCCC1)c1cccc(Cl)c1`: the activation factor was inactive: 1.01. On to `COc1ccc(Cl)cc1C(=O)NCC1(N(C)C)CCCCC1`, for which the activation factor was inactive: 1.04. As for `COc1cccc(C(=O)NCC2(N3CCCCC3)CCCCC2)c1`, the activation factor was inactive: 0.934.

Take `CN(C)C1CCCC1OC(=O)C(O)(c1ccccc1)c1ccccc1` (centres undefined): the activation factor is inactive: 1.07. `CN(C)c1ccc(C(=O)NCC2(N(C)C)CCCCC2)cc1`: the activation factor is inactive: 1.03. Consider `Cc1ccccc1C(=O)NCC1(N2CCCCC2)CCCCC1`, for which the activation factor is inactive: 1. For `O=C(NCC1(N2CCCCC2)CCCCC1)c1cccc(Br)c1`, the activation factor is inactive: 1.07. As for `Cc1cc(C(=O)NCC2(N3CCCCC3)CCCCC2)ccc1[N+](=O)[O-]`, the figure is inactive: 1.06; as for `CCN1CCCC(OC(=O)C2(O)c3ccccc3C=Cc3ccccc32)C1` (centres undefined), inactive: 1; as for `COc1ccc(C(=O)NCC2(N(C)C)CCCCC2)cc1`, inactive: 1.03.

Consider `O=C(NCC1(N2CCCCC2)CCCCC1)c1cc(F)c(F)cc1Cl`, for which the activation factor was inactive: 1.

On to `C=CCN1CCN(CCOC(=O)C(O)(c2ccccc2)c2ccccc2)CC1`, for which the activation factor is inactive: 1.06. `CN1[C@@H]2CC[C@H]1CC(OC(=O)C(O)(c1ccccc1)c1ccccc1)C2` (some centres undefined): the activation factor is inactive: 1.05. The same measure for `O=C(NCC1(N2CCCCC2)CCCCC1)c1cc([N+](=O)[O-])ccc1Cl`: inactive: 0.959. On to `Cc1ccc(C(=O)NCC2(N3CCCCC3)CCCCC2)cc1`, for which the activation factor was inactive: 1. Consider `CC(C)N1C(=O)CC2(CCN(CCOC(=O)C(O)(c3ccccc3)c3ccccc3)CC2)C1=O`, for which the activation factor was inactive: 1.02. The same measure for `COc1cc(SC)ccc1C(=O)NCC1(N(C)C)CCCCC1`: inactive: 1.04; for `CCN(CC)CC(C)C(C)OC(=O)C(O)(c1ccccc1)c1ccccc1` (centres undefined): inactive: 0.982.
